This is a selection; strong and weak results do not stand in their true shares.

One may read the inhibition as the change of the read-out against control, counted positive when it falls.

This experiment deals with T1, Protein deacetylase HDAC6 (Homo sapiens) (UniProt Q9UBN7).
T1 sequence (whole entry): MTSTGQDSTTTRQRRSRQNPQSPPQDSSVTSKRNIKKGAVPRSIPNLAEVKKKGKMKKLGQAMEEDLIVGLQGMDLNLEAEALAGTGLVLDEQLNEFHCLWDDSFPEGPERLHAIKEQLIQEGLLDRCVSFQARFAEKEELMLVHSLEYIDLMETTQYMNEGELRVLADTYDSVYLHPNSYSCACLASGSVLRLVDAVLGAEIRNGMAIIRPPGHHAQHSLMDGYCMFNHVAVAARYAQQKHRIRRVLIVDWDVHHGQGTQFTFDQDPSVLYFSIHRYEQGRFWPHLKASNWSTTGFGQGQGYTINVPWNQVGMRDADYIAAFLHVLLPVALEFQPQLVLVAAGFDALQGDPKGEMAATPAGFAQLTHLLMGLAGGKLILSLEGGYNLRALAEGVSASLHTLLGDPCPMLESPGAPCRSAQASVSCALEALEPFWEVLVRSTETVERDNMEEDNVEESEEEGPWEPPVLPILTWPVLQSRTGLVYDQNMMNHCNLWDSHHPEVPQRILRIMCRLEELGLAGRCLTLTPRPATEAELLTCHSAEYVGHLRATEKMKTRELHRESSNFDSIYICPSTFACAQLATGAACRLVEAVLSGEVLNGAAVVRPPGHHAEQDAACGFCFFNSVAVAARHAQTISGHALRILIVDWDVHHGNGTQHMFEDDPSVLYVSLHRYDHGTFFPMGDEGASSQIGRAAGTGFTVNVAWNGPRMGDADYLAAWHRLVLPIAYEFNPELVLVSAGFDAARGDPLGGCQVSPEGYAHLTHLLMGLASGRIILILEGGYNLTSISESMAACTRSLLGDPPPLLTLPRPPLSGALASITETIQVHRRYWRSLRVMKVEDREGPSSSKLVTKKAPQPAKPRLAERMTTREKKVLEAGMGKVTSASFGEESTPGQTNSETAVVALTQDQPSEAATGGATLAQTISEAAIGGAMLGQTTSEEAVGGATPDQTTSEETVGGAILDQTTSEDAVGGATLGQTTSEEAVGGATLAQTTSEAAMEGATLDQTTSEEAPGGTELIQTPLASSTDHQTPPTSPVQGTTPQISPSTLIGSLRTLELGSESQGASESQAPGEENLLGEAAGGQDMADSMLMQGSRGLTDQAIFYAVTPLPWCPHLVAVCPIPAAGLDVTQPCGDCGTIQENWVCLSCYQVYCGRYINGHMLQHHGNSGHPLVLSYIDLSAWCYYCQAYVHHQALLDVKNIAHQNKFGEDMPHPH
Conditions: at 10 µM.
Consider `O=C(OC1CN2CCC1CC2)c1ccccc1` (centres undefined), for which the inhibition was -0.28%.

Regarding `O=P(O)(O)F`, the inhibition amounted to 15.2%.

Turning to `CN(C)[C@]1(c2ccccc2)CC[C@]2(CC1)OCCc1c3cc(F)ccc3[nH]c12`, the inhibition was -7.28%.

As for `CN(C(=O)Cc1ccc(Cl)c(Cl)c1)[C@H]1CCCC[C@@H]1N1CCCC1`, the inhibition turned out to be 23.9%.

Values taken from ChEMBL document CHEMBL4808148, “HDAC6 screening dataset using tau-based substrate in an enzymatic assay yields selective inhibitors and activators” (2021).
